Literature values, collected in US10889565B2, “4-hydroxy-3-sulfonylpyridin-2(1H)-ones as APJ receptor agonists” (BRISTOL-MYERS SQUIBB COMPANY, priority 2016, dated 2021).

Chains of the proteins cited; added tags and fusions are not shown. Lines headed by an entry give the natural chain unless they say otherwise; changes in a name come on top.
UniProt P35414: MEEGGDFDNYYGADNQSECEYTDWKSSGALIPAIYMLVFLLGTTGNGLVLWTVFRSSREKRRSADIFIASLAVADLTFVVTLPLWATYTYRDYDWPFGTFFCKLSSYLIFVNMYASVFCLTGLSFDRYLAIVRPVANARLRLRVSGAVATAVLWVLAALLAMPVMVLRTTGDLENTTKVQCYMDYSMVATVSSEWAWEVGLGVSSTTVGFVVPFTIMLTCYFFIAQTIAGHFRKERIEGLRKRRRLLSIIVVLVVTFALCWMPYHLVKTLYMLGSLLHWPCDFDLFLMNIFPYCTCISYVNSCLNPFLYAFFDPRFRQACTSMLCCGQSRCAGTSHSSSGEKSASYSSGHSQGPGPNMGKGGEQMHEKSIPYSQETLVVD

Biological target: APJ receptor (Homo sapiens, UniProt P35414)
Details: reported, Pitkin et al. 2010; cited from earlier work

Substance: Apelin
- binding affinity: sub-nanomolar range
